These are literature values, as cited in patent US20030176652A1, “Human and mouse beta-defensins, antimicrobial peptides” (priority 2001, published 2003).

Read-outs that look alike come from different tables or passages of the source.

The subject of one data set is Bordetella parapertussis. On the set-up: unit not given beside the values.
Data set [1] concerns Staphylococcus coagulase f. On the set-up: MIC90: unit not given beside the values.
[2] abbreviates: Staphylococcus coagulase f (non β-lactamase producer).
Setting [3] is: Staphylococcus coagulase f (β-lactamase producer).

With `CC[C@H]1OC(=O)[C@H](C)[C@@H](O[C@H]2C[C@@](C)(OC)[C@@H](O)[C@H](C)O2)[C@H](C)[C@@H](O[C@@H]2O[C@H](C)C[C@H](N(C)C)[C@H]2O)[C@](C)(O)C[C@@H](C)C(=O)[C@H](C)[C@@H](O)[C@]1(C)O` [ERYTHROMYCIN, erythromycin], the MIC90 with Bordetella parapertussis is listed as 0.25; in data set [1] (setting [2]), 0.25; in data set [1] (setting [3]) it was 4. Also, the Range in data set [1] (setting [2]) is reported as 0.03-8; in data set [1] (setting [3]), 0.06-16.
